Assays:
Nitric oxide synthase 3 = molecular target: T1, Nitric oxide synthase 3 (Homo sapiens, UniProt P29474); assay: Inhibitory activity against Endothelial nitric oxide synthase
T1 sequence (P29474 whole entry): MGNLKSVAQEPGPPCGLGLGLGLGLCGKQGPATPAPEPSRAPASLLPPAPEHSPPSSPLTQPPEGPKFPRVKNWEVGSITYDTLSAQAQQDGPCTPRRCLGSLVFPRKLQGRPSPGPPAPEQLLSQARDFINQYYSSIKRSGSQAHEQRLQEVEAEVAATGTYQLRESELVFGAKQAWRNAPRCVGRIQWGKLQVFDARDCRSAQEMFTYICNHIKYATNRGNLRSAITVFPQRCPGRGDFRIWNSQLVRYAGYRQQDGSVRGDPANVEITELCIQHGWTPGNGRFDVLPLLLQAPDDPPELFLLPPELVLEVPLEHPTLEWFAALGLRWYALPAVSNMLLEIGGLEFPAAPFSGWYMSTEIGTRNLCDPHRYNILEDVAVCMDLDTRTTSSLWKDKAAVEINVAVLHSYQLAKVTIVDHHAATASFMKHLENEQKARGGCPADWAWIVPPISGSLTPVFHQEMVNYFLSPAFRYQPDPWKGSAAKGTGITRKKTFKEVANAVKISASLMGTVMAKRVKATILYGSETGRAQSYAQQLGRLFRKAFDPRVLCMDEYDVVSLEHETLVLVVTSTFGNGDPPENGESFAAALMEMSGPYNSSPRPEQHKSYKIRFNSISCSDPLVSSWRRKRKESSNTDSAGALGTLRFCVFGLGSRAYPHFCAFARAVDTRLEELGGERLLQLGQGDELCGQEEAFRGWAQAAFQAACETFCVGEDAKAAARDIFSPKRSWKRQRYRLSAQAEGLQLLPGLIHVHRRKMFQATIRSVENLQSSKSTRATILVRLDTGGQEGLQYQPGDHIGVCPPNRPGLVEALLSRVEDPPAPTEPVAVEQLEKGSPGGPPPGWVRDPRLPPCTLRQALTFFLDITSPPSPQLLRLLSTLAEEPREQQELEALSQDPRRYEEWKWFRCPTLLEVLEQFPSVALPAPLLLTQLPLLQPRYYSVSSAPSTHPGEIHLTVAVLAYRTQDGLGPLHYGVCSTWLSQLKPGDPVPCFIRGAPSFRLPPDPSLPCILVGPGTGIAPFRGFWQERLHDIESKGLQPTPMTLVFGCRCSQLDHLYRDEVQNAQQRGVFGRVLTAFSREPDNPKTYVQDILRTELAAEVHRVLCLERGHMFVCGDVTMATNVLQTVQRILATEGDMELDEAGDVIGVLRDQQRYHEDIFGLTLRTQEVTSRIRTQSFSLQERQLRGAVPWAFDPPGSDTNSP

Amino acid sequences for entries named in this document (tags omitted).
UniProt P35228, whole entry: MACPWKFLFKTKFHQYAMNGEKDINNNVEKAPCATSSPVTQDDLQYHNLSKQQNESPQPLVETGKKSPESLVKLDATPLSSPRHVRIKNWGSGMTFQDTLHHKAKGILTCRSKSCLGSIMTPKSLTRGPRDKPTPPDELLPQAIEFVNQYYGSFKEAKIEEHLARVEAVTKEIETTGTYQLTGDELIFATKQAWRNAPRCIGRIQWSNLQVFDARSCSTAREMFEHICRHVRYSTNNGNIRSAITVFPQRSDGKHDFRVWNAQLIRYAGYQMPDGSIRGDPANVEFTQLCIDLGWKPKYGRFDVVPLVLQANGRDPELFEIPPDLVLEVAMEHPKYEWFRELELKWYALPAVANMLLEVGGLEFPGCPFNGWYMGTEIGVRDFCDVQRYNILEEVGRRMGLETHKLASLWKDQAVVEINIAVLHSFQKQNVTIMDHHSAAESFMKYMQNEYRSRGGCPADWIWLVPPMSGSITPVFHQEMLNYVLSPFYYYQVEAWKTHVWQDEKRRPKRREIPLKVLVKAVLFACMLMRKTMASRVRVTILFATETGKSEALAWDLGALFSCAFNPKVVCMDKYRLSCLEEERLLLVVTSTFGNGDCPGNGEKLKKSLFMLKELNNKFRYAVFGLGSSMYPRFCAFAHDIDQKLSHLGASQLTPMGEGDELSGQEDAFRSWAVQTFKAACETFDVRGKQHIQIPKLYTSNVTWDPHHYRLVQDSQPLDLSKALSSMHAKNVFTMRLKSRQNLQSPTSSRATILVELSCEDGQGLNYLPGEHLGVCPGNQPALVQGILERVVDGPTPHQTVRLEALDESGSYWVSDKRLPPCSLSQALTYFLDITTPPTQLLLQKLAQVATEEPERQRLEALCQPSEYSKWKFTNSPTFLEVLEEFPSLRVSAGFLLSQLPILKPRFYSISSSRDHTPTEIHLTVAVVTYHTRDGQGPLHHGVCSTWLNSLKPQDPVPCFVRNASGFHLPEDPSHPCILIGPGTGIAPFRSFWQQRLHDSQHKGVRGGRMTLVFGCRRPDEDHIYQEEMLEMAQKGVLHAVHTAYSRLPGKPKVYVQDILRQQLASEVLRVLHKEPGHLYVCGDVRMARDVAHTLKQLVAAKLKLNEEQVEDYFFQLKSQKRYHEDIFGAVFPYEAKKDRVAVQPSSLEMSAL

[1] = molecular target: Nitric oxide synthase, inducible (Homo sapiens, UniProt P35228); assay: Inhibitory activity against Inducible nitric oxide synthase

- IC50 (Nitric oxide synthase 3): 24 µM
- IC50 [1]: 1.2 µM
SMILES: NC1=NCC2CCCCC12 (configuration not stated)
